According to patent US20080064053A1, “Genotoxicity Testing” (priority 2003, published 2008):

Columns and labels:
[1] = tested on: SOS umuC; settings: S9 −; cited from earlier work
[2] = tested on: RAD54 promoter-GFP reporter (pGen001); settings: S9 −

Structure (SMILES): CN(N=O)C(=N)N[N+](=O)[O-]
- SOS UMUC ASSAY (M), LEC [1]: 6e-06 M
- GSA (M), lowest effective concentration (LEC) [2]: 1.7e-06 M
